Curated experimental data: logP (octanol/water) values

The octanol-water partition coefficient is given as log10; larger values mean a more lipophilic compound.
Cells with "–" have no entry in this list.

- Cc1cc(S(=O)(=O)[O-])c(/N=N/c2c(O)c(C(=O)[O-])cc3ccccc23)cc1Cl.[Ba+2]: log Kow 0.11
- CCN(CC)Cc1cc(Nc2ccnc3cc(Cl)ccc23)ccc1O [Amodiaquine]: log Kow 3.7
- CCC(C)n1ncn(-c2ccc(N3CCN(c4ccc(O)cc4)CC3)cc2)c1=O (centres undefined): log Kow 2.5
- O=C1OC(C(O)CO)C([O-])=C1OP(=O)([O-])[O-].[Na+].[Na+].[Na+] (centres undefined) [Sodium ascorbyl phosphate]: log Kow -4
- CC(=O)N(C[C@@H](O)CO)c1c(I)c(C(=O)NC(CO)CO)c(I)c(N(C(C)=O)[C@@H](O)CO)c1I: log Kow -2.8
- O=C1OC(=O)c2ccc3c4ccc5c6c(ccc(c7ccc1c2c73)c64)C(=O)OC5=O [Perylo[3,4-cd:9,10-c'd']dipyran-1,3,8,10-tetrone]: log Kow 1.3
- CC1C(=O)CCC1=O [2-Methylcyclopentane-1,3-dione]: log Kow -0.8
- CC(C)(C)N.CCCC(NC(C)C(=O)N1C(C(=O)O)CC2CCCCC21)C(=O)OCC (centres undefined) [Perindopril erbumine]: log Kow 2.6
- Clc1ccccc1CN1CCc2sccc2C1 [Ticlopidine]: log Kow 2.9
- Nc1c(F)c(F)c(F)c(F)c1F [2,3,4,5,6-Pentafluoroaniline]: log Kow 1.86
- CCCCCc1ccc2c(c1)C(=O)c1ccccc1C2=O: log Kow 5.59
- NCC(=O)Nc1ccc(C(=O)O)cc1 [4-(Glycylamino)benzoic acid]: log Kow 0.95
- CC(C)c1ccc(-c2ccccc2)cc1 [4-Isopropylbiphenyl]: log Kow 5.51
- COCCOCCOCCO[Si](C)(C)OCCOCCOCCOC [12,12-Dimethyl-2,5,8,11,13,16,19,22-octaoxa-12-silatricosane]: log Kow -0.38
- C=C(CO)C1CC=C(C)CC1 (centres undefined) [3-Cyclohexene-1-ethanol, 4-methyl-.beta.-methylene-]: log Kow 3.17
- C[N+](C)(C)CC(O)CCl.[Cl-] (centres undefined) [(3-Chloro-2-hydroxypropyl)trimethylammonium chloride]: log Kow -1.5
- CCOc1ccc(C=O)cc1 [p-Ethoxybenzaldehyde]: log Kow 2.09
- O/C(=N\c1ccc2nc(O)[nH]c2c1)c1cc2ccccc2cc1O.[HH].[Na+]: log Kow 2.02
- CNCC(=O)N=C(C)O [N-(N-Methylglycyl)ethanimidic acid]: log Kow -1.56
- CCC(Cl)Cl [1,1-Dichloropropane]: log Kow 2.3
- CCCCOC=O [Formic acid, butyl ester]: log Kow 1.32
- O=C=Nc1ccc(Cc2ccc(N=C=O)cc2)cc1 [4,4'-Diphenylmethane diisocyanate]: log Kow 4.51
- Nc1nc(Cl)c2ncn(CCC(CO)CO)c2n1: log Kow -0.84
- Nc1c(I)cc(I)c(C(=O)[O-])c1I.[Na+] [Benzoic acid, 3-amino-2,4,6-triiodo-, sodium salt]: log Kow 0.97
- COc1ccc(OC)c([N+](=O)[O-])c1 [Benzene, 1,4-dimethoxy-2-nitro-]: log Kow 1.88
- CN(C)CCOc1ccc(/C(=C(/CCCl)c2ccccc2)c2ccccc2)cc1 [Toremifene]: log Kow 6.8
- CCN(CC)c1ccc(C(=C2C=CC(=[N+](CC)CC)C=C2)c2ccccc2)cc1.O=S(=O)([O-])O [Brilliant Green]: log Kow 0.765
- CCCCCCC(O)CCCCCCCCCCC(=O)OCC(CC)CCCC (centres undefined) [Octadecanoic acid, 12-hydroxy-, 2-ethylhexyl ester]: log Kow 9.776
- O=c1occo1 [1,3-Dioxol-2-one]: log Kow 0.437
- CC(=O)[O-].CCN(Cc1ccccc1)c1ccc(/C=C/c2cc[n+](CCO)cc2)cc1: log Kow -0.27
- OCCCCCCc1ccccc1 [Benzenehexanol]: log Kow 3.29
- N#CCc1ccc(Cl)cc1F [4-Chloro-2-fluorophenylacetonitrile]: log Kow 2.34
- CCCCCCCCCCCCCCCCSc1nc2ccc(S(=O)(=O)O)cc2[nH]1.[HH].[Na+]: log Kow 4.7
- C[N+](C)(C)CCCc1ccccc1.[I-] [N,N,N-Trimethyl-3-phenylpropan-1-aminium iodide]: log Kow -2.02
- CCCCCCCOC(=O)CCC(=O)OCCCCCCC [Diheptyl succinate]: log Kow 5.1
- CCN(CC)c1ccc(/C=C(\C#N)C(=O)OCCC[N+](C)(C)CCOC(=O)/C(C#N)=C/c2ccc(N(CC)CC)cc2)cc1.[Cl-]: log Kow 1.592
- CC(C)(C)N(CC(=O)c1ccc(O)c(CO)c1)Cc1ccccc1.Cl: log Kow -0.77
- CCCCCCCCCCCCCCCCCCCCO [1-Eicosanol]: log Kow 8.025
- C/C(=C\C[P+](c1ccccc1)(c1ccccc1)c1ccccc1)C1OCC(C)(C)CO1.[Cl-]: log Kow -0.89
- CC1=NN(c2cccc(S(=O)(=O)[O-])c2)C(=N)C1/N=N/c1ccc(S(=O)(=O)c2ccc(/N=N/C3C(=N)N(c4cccc(S(=O)(=O)[O-])c4)N=C3C)cc2)cc1.[Na+].[Na+] (stereo partly drawn): log Kow 0.58
- CC(=O)[O-].CN1/C(=C\C=C\C2=[N+](C)c3ccccc3C2(C)C)C(C)(C)c2ccccc21: log Kow 1.91
- Nc1cc(N2CCCC2)nc(N)[n+]1[O-] [Pyrrolidinyl diaminopyrimidine oxide]: log Kow 0.84
- N#Cc1cccc(S(=O)(=O)CCCS(=O)(=O)[O-])c1C#N.[Na+] [Sodium 3-((2,3-dicyanophenyl)sulfonyl)propane-1-sulfonate]: log Kow -2.05
- O=c1n(CCO)c(=O)n(CCO)c(=O)n1CCO [Tris(2-hydroxyethyl) isocyanurate]: log Kow -1.63
- CCOCCOCCOC(=O)C1CCC(C(=O)OCCOCCOCC)CC1 (centres undefined) [Bis-ethoxydiglycol cyclohexane 1,4-dicarboxylate]: log Kow 2.5
- CC1(C)CC(N)CC(C)(CN)C1 (centres undefined) [Isophorone diamine]: log Kow 0.89
- CC1(C)CC(N(N=O)C(O)=NC2C(O)OC(CO)C(O)C2O)CC(C)(C)[N+]1=O (centres undefined): log Kow 1.87
- CC(O)=N[C@@H](Cc1cnc[nH]1)C(=N)O: log Kow -1.7
- CSc1c(C)cc(O)cc1C [3,5-Dimethyl-4-(methylthio)phenol]: log Kow 3.455
- CN(N=O)C(=O)N[C@@H](C=O)[C@@H](O)[C@H](O)[C@H](O)CO [Streptozotocin]: log Kow -1.45
- O=S(=O)([O-])CCN1CCOCC1.[Na+] [4-Morpholineethanesulfonic acid, sodium salt (1:1)]: log Kow -2.36

Again, the 9 entries with the lowest log Kow:

| SMILES | name | log Kow |
|---|---|---|
| O=C1OC(C(O)CO)C([O-])=C1OP(=O)([O-])[O-].[Na+].[Na+].[Na+] (centres undefined) | Sodium ascorbyl phosphate | -4 |
| CC(=O)N(C[C@@H](O)CO)c1c(I)c(C(=O)NC(CO)CO)c(I)c(N(C(C)=O)[C@@H](O)CO)c1I | – | -2.8 |
| O=S(=O)([O-])CCN1CCOCC1.[Na+] | 4-Morpholineethanesulfonic acid, sodium salt (1:1) | -2.36 |
| N#Cc1cccc(S(=O)(=O)CCCS(=O)(=O)[O-])c1C#N.[Na+] | Sodium 3-((2,3-dicyanophenyl)sulfonyl)propane-1-sulfonate | -2.05 |
| C[N+](C)(C)CCCc1ccccc1.[I-] | N,N,N-Trimethyl-3-phenylpropan-1-aminium iodide | -2.02 |
| CC(O)=N[C@@H](Cc1cnc[nH]1)C(=N)O | – | -1.7 |
| O=c1n(CCO)c(=O)n(CCO)c(=O)n1CCO | Tris(2-hydroxyethyl) isocyanurate | -1.63 |
| CNCC(=O)N=C(C)O | N-(N-Methylglycyl)ethanimidic acid | -1.56 |
| C[N+](C)(C)CC(O)CCl.[Cl-] (centres undefined) | (3-Chloro-2-hydroxypropyl)trimethylammonium chloride | -1.5 |

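OPERA's authors assembled the values from existing databases and did not measure them anew. A listed value is a point estimate from one report or more. How each value was measured is not recorded, so precision varies. A value may pool stereoisomers or salt forms, and the file does not say which form was measured. Some upstream entries may be estimates or bounds without being marked so.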

Values as listed in the OPERA 2.9 repository of K. Mansouri.